## AlphaSeq binding of Ab-14 light chain variants to a spike HR2 peptide

Reference: Engelhart et al. 2022, doi:10.1038/s41597-022-01779-4. File: FLAb, binding data.

Antigen: PDVDLGDISGINAS, a 14-residue peptide of the SARS-CoV-2 spike HR2 region.

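The library (AAYL50) carries one to three amino acid substitutions per variant, with no insertions or deletions. AlphaSeq pools MATa yeast showing the antibodies with MATalpha yeast showing the peptide. Binding brings cells together so that they mate, and sequencing counts the barcode pairs among the diploids. Scores were corrected for input abundance and mapped to Kd with protein pairs of known affinity run in the same pool. Mating was done three times.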

Each scFv is VH, a 15-residue (Gly4Ser)3 linker, VL, as in the parent Ab-14, and differs from it in the CDRs of the light chain only.
VH: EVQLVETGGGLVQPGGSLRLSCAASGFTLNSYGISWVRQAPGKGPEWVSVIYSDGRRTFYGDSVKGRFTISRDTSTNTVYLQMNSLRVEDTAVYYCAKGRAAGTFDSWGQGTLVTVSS
VL: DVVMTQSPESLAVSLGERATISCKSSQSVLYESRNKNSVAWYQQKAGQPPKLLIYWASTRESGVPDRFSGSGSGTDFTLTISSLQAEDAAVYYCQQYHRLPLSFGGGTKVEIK

Variants are written as CDR1, CDR2 and CDR3 of the light chain (limits as in the source). Parent: KSSQSVLYESRNKNSVA, WASTRES, QQYHRLPLS.
Numbers give log10(Kd / nM), so 0 is 1 nM and 3 is 1 µM. Smaller is tighter.
A mean of the replicates is given; it leaves out those without a signal.
An entry "ND" has no value in the source: the pair was not observed among the diploids in that replicate. This suggests poor binding but is not conclusive.
Nonspecific signal, from three strains lacking the peptide, appeared in 18% of pairings of library AAYL50, centred on 4.19 (5% of these signals below 2.99); values are not corrected for it. The control count says in how many pairings with the empty strains this scFv gave a signal, with their mean in brackets.

CDR-L1	CDR-L2	CDR-L3	replicates, log10 nM	log10 Kd (nM), mean	signal with controls
KSNQSVLYISRNKCSVA	WASTRES	QQYHRLPLS	2.83 ND ND	2.83	0/9
KSSQSVDYESRHKNSVA	WASTRES	QQYHRLPLS	1.76 1.76 1.78	1.77	6/9 (4.39)
KSSNSVLYESRNKNSVA	WASARES	QTYHRLPLS	3.25 ND 3.64	3.45	1/9 (3.45)
KSSQSVSYESRNKNSVA	WASTRES	QQYHRKPLS	ND ND ND	ND	0/9
KHSQSVLYESRNKNYVA	WACTRES	QQYHRLPLS	ND ND ND	ND	0/9
KSSQSVLYESRNKQSVA	WASARCS	QQYHRLPLS	1.82 1.64 1.84	1.76	5/9 (3.87)
KSSQSVLYESRNKNSVA	WAQTRES	QRYHRLPLS	0.97 1.19 1.14	1.10	1/9 (3.59)
KSSQSVMYESRLKNSVA	WASTRES	QQLHRLPLS	0.87 1.26 1.18	1.10	2/9 (4.65)
KPSQSVLYESRNKNSVA	WASTRSS	QLYHRLPLS	ND 3.64 3.26	3.45	3/9 (4.00)
KSRQSVLYESRNLNSVA	WASMRES	QQYHRLPLS	0.85 1.31 1.02	1.06	5/9 (4.02)
KSSQSTLYESRNKNSVA	WASTRES	QQYHRYPSS	ND ND ND	ND	0/9
KSSQSVLYEMRNKNSVA	WASTRES	QQYHKLPLG	2.64 3.07 2.21	2.64	2/9 (2.72)
KSSQSVLYESRNANSVA	WAVTRES	QQFHRLPLS	2.30 2.31 2.84	2.48	1/9 (3.65)
KSSQSVLYESRNKNSVA	WYSLRES	QQYHRLPLW	ND ND ND	ND	2/9 (3.89)
KSSQSVLYESRNKNSCA	WRSTEES	QQYHRLPLS	ND ND ND	ND	2/9 (3.67)
KSSQSWLYESRNKASVA	WAQTRES	QQYHRLPLS	1.22 ND 2.48	1.85	0/9
KSSQSMLYESRNMNSVA	WASTRES	FQYHRLPLS	ND ND ND	ND	0/9
KSSQSVLYESRNRNSVA	WASTRES	QIYHRLPLD	ND ND 4.68	4.68	1/9 (4.09)
KSSQSPLYESRNKNSVA	WISDRES	QQYHRLPLS	5.11 ND ND	5.11	1/9 (4.91)
KSSQSVLYESPNKPSVA	WASTRES	QQYHRLPLS	ND ND ND	ND	0/9
KSSQSVLYESRNKNSVK	WASTRES	WQYHRLPLS	ND 3.75 ND	3.75	4/9 (4.31)
KSSQSVLYESRNPNSQA	WAMTRES	QQYHRLPLS	ND ND ND	ND	2/9 (3.85)
KLSQSVLYESRNKNSVA	WASTRES	YQYHRFPLS	1.52 1.99 2.25	1.92	2/9 (3.05)
KSSQSVLYESRNKNSWA	WASTRES	QQYHRLPLE	ND 4.05 ND	4.05	2/9 (3.97)
PSSQSVLYESRNKNSVD	WAWTRES	QQYHRLPLS	ND ND ND	ND	0/9
KSSQSVLYESRNKNSVA	WASTRES	QQYHKPPVS	ND 4.78 ND	4.78	2/9 (3.53)
KSSQSVLYESRNKNSVT	WASTREK	QQYHKLPLS	ND 3.65 ND	3.65	2/9 (3.81)
KSSQSVLYISRNKNSVA	WASTRES	QAYHRLPLS	3.86 2.41 2.08	2.78	0/9
KSGQSVYYESRNKNSVA	WAGTRES	QQYHRLPLS	2.10 2.09 2.46	2.22	2/9 (4.10)
KSSQSVLFESRNKNSVA	YASTRES	QQYHHLPLS	4.03 ND ND	4.03	1/9 (3.32)
KSSQSVLYEFRNKNSVA	WASTRVS	QQYHRLPLS	1.21 1.42 1.29	1.30	2/9 (3.22)
KSSQSVHYESRNKNSVA	WASSRES	CQYHRLPLS	1.89 2.06 3.51	2.49	0/9
KSSQSVLYESRNKHSVA	WAVTRES	QQYHRLPLY	4.61 ND 4.50	4.56	2/9 (3.47)
KSSQSVLYESRNKNSVA	WASTREM	QQYHRLPIR	2.02 1.65 1.68	1.78	1/9 (3.75)
KSSQSWLYESRMKNSVA	WASTRES	QQYGRLPLS	1.75 1.89 1.86	1.83	1/9 (4.11)
KSSQSELYESRNKNSLA	WASTRES	QQYHRLFLS	ND ND ND	ND	0/9
KSSATVLYESRNKNSVA	WATTRES	QQYHRLPLS	1.27 1.34 1.63	1.41	2/9 (4.84)
KSSQSVLYESRAKNSVA	WQSTRES	QQYHHLPLS	1.93 1.83 1.65	1.80	0/9
KSSQSVLYESRNKNMVA	GASTRES	QQYHRLPLN	0.48 0.69 0.74	0.64	4/9 (4.63)
KSSQSVLYESRNKNSVA	WASDREF	QQYHRVPLS	2.94 2.51 2.78	2.74	5/9 (4.87)
KSSQDVLYESRNKNSVA	WASPLES	QQYHRLPLS	ND 4.68 ND	4.68	2/9 (3.98)
KSSGSVLYESRNKNSVA	WNSTRES	QQYHRLPLS	3.36 4.66 ND	4.01	1/9 (2.57)
KSSQSVLYESRGKNSVA	WQSTREN	QQYHRLPLS	ND 3.64 3.19	3.41	0/9
KSSQSVLGESRNKNSVA	WASTRRS	QQYHRLPLS	2.23 2.20 2.74	2.39	3/9 (4.86)
KSLYSVLYESRNKNSVA	WASTRES	QQYHRLPLS	1.26 1.38 1.31	1.31	3/9 (3.65)
KSSQSNLYESRNKNSVA	WASNREI	QQYHRLPLS	1.45 1.63 1.77	1.62	6/9 (4.12)
KSSQSTLYESRNKNSVA	WASTRES	QQCHRLPIS	ND 3.91 ND	3.91	2/9 (4.10)